Consider 1 compound from ChEMBL document CHEMBL3856219, “The "Cyclopropyl Fragment" is a Versatile Player that Frequently Appears in Preclinical/Clinical Drug Molecules” (J Med Chem, 2016).

Amino acid sequences for entries named in this document (tags omitted). A change or cut given only in a name is not applied to a line headed by its entry.
UniProt P41145: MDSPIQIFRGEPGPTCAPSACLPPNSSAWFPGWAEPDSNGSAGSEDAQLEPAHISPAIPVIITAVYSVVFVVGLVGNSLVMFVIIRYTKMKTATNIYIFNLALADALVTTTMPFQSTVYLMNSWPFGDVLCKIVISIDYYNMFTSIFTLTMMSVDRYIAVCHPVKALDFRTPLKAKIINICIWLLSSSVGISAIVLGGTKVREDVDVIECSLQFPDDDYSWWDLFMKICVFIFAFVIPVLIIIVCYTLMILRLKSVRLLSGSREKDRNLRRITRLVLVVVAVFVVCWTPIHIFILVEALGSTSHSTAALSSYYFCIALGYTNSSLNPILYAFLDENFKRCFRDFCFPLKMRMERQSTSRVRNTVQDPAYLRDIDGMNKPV

The assay addresses Kappa-type opioid receptor (Homo sapiens, UniProt P41145).

For the compound `C=C1CC[C@@]2(O)[C@H]3Cc4ccc(O)c5c4[C@@]2(CCN3CC2CC2)[C@H]1O5`, the inhibition constant Ki (as a rule, a measure of affinity in units of concentration, obtained from inhibition or displacement) was 0.083 nM.
